Measured values published in publication PMC4789100 (Environment international, 2009).

Molecular target: T1, sheep placental cytosolic estrogen sulfotransferase (estradiol as substrate) (Ovis aries, UniProt A0ACI6NYW9)
T1 sequence (A0ACI6NYW9 1-296): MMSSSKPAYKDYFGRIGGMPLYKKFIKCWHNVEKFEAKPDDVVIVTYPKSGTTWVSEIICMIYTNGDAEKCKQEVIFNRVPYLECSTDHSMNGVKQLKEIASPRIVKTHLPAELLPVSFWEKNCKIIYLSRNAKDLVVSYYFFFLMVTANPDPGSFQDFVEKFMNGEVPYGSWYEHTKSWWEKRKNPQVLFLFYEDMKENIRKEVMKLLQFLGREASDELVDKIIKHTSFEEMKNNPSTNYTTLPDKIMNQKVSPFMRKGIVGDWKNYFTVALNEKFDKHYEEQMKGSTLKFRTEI
Type: biochemical

## Oc1cc(Cl)ccc1Oc1ccc(Cl)cc1Cl [Triclosan, 5-chloro-2(2,4-dichlorophenoxy)-phenol]
  Difference in inhibitory potency between Kic and Kiu: 50 fold
  Mechanism of inhibition of estradiol sulfonation: mixed competitive/uncompetitive; also recorded: mixed inhibition
Triclosan 0.1 nM, placental sample SH1
  Vmax for estradiol sulfonation: 35.2 pmol/min/mg
Triclosan 0.1 nM, placental sample SH2
  Vmax for estradiol sulfonation: 22.4 pmol/min/mg
Triclosan 0.1 nM, placental sample SH3
  Vmax for estradiol sulfonation: 37.4 pmol/min/mg
Triclosan 0.5 nM, placental sample SH1
  Vmax for estradiol sulfonation: 31.6 pmol/min/mg
Triclosan 0.5 nM, placental sample SH2
  Vmax for estradiol sulfonation: 22.7 pmol/min/mg
Triclosan 0.5 nM, placental sample SH3
  Vmax for estradiol sulfonation: 32.4 pmol/min/mg
Triclosan 1.0 nM, placental sample SH1
  Vmax for estradiol sulfonation: 26.0 pmol/min/mg
Triclosan 1.0 nM, placental sample SH2
  Vmax for estradiol sulfonation: 20.9 pmol/min/mg
Triclosan 1.0 nM, placental sample SH3
  Vmax for estradiol sulfonation: 31.6 pmol/min/mg
Triclosan 2.0 nM, placental sample SH1
  Vmax for estradiol sulfonation: 19.9 pmol/min/mg
Triclosan 2.0 nM, placental sample SH3
  Vmax for estradiol sulfonation: 27.1 pmol/min/mg
Triclosan 2.5 nM, placental sample SH2
  Vmax for estradiol sulfonation: 17.6 pmol/min/mg
Triclosan 2.5 nM, placental sample SH3
  Vmax for estradiol sulfonation: 26.5 pmol/min/mg
Estradiol 0.1-6 nM, mean±S.D., n=3 individuals
  Kiu, uncompetitive inhibitory constant: 5.2 ± 2.9 nM

“Also recorded” adds a separate entry of the source. Read-outs that look alike come from different tables or passages of the source.
